Consider five molecules from patent publication EP4831173A1, “TYK2 INHIBITOR AND USE THEROF” (dated 2026).

Sequences of proteins named here, by UniProt entry; tags and fusion partners are left off. Residues count along the entry.
UniProt P29597, whole entry: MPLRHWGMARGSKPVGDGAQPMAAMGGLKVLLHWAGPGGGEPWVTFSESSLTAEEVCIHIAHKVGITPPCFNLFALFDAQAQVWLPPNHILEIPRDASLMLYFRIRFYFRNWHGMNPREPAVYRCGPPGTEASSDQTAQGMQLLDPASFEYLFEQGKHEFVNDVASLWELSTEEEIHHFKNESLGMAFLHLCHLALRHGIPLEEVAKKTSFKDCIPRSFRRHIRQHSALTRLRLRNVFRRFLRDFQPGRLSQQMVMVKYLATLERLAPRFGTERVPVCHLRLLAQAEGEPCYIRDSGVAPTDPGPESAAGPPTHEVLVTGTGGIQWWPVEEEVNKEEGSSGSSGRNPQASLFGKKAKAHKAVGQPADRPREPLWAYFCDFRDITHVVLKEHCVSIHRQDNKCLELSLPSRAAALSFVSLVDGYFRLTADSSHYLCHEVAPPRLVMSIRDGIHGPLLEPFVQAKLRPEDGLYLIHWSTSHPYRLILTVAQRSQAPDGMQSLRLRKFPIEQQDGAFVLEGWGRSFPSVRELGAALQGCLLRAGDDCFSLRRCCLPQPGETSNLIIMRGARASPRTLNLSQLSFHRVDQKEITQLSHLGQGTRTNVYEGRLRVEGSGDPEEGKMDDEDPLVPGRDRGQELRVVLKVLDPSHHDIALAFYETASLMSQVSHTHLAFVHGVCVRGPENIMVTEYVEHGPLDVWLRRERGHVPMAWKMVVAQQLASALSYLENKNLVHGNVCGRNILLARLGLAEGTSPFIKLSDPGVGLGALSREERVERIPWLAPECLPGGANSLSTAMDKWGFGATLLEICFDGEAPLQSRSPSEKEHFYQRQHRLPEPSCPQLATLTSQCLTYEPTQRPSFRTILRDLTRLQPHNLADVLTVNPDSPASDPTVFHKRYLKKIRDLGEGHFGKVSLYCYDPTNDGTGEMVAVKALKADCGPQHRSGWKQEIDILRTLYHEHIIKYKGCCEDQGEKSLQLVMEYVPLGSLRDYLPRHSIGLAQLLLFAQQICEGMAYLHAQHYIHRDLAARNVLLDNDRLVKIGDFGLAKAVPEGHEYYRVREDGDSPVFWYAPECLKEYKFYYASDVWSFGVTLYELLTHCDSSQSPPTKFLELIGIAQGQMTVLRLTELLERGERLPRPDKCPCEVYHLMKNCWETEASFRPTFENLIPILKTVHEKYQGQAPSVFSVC
UniProt P29597, 589-875 limits assumed: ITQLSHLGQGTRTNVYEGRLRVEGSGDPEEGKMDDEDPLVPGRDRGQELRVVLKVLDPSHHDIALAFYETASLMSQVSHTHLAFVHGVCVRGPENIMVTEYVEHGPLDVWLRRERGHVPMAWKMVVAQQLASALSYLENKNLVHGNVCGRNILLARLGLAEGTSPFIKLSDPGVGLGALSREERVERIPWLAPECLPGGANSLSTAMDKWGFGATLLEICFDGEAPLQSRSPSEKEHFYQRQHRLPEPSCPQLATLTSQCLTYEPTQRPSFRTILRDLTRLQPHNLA
UniProt P29597, 897-1176 limits assumed: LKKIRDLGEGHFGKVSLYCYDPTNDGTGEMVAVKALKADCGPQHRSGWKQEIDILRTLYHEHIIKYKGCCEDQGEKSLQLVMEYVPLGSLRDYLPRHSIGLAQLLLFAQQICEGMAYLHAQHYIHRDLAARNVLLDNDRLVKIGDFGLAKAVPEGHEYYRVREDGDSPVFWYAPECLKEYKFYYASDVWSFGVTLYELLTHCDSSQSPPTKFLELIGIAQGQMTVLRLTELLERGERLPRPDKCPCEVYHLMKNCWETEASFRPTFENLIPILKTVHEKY
UniProt P23458, whole entry partner: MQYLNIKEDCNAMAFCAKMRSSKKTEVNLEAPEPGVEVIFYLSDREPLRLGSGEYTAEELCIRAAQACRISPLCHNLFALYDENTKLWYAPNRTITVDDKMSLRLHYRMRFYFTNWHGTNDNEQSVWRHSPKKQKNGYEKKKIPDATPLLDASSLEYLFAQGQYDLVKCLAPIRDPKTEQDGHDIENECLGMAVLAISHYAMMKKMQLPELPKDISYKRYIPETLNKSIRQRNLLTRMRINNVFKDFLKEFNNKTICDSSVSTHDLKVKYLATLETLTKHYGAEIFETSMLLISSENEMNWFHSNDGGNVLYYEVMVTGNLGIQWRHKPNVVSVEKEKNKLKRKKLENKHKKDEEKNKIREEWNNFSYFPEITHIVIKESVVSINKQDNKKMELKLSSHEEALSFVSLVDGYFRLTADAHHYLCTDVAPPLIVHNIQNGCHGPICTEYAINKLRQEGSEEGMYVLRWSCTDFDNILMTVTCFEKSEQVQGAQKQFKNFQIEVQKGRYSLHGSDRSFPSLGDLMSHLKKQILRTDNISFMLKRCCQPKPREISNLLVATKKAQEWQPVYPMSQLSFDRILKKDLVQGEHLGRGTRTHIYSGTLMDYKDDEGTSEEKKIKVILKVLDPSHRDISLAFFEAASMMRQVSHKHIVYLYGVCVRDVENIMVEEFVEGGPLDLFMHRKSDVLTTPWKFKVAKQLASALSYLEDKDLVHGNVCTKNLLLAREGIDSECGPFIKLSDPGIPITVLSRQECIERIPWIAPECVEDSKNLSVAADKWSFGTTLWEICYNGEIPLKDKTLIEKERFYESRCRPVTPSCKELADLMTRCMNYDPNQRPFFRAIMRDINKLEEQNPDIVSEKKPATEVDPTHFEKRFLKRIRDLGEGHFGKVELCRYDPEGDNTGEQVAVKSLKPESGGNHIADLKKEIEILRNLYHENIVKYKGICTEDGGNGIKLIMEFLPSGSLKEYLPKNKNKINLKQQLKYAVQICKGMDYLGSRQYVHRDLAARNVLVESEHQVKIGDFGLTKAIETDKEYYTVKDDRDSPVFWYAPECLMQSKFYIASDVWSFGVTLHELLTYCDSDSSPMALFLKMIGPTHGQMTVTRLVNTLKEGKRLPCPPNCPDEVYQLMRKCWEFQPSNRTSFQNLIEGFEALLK
UniProt P23458, 875-1153 limits assumed: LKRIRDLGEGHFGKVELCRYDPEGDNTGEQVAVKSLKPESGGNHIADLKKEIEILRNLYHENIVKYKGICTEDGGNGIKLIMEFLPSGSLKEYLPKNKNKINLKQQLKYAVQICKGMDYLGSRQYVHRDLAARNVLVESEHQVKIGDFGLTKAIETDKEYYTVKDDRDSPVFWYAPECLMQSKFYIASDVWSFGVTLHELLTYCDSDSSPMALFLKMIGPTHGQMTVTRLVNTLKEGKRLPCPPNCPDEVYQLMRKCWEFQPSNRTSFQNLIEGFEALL
UniProt O60674, 849-1124 limits assumed: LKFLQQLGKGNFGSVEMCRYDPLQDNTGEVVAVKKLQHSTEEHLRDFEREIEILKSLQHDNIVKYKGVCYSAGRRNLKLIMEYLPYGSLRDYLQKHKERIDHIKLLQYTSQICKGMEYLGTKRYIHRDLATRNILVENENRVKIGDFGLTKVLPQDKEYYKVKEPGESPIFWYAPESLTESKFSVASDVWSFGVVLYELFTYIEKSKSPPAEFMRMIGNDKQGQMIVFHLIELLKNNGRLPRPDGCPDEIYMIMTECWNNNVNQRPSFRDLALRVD
UniProt P52333, 822-1111 limits assumed: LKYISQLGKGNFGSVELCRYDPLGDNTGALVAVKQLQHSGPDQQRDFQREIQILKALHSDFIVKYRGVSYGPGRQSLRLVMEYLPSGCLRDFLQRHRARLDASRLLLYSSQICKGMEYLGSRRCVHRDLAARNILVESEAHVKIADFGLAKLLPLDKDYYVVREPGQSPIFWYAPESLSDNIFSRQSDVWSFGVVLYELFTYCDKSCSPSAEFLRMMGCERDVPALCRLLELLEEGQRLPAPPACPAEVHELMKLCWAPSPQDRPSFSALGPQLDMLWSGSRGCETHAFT

The structures appear in SMILES notation. pIC50: −log10 of the molar value. Some results are limits rather than exact numbers.

One test addresses TYK2/JAK1 (Homo sapiens, UniProt P29597). The test is described as follows: TYK2/JAK1 cell activity by IFNα2B stimulation, SEAP reporter in HEK-blue IFNα/β cells. To be noted: HEK-blue IFNα/β cell line, human IFNα2B 1 U/mL, 24 hours, SEAP absorbance at 630 nm. The protocol:
Experimental Example 3: Analysis of TYK2/JAKI cell activity by IFNα2B stimulation
An inhibition effect of TYK2/JAK1 activity of the test compound was analyzed using HEK-blue IFNα/β cell line (InvivoGen) that secretes SEAP (Secreted embryonic alkaline phosphatase) depending on the degree of cell stimulation. Cell culture and evaluation were performed according to the manufacturer's recommendations, and the method thereof is as follows: Cells cultured in a growth medium (Dulbecco's Modified Eagle Medium, 10% Fetal bovine serum, 1% Penicillin-Streptomycin, 100 ug/mL Normocin, 10 mg/mL Blasticidin, […] Zeocin) were collected and resuspended in a test medium (DMEM, 10% FBS, 1% Penicillin-Streptomycin), and 3.5x10^4 cells (160 uL) were dispensed into each well of a 96-well plate. After culturing for 24 hours in a 37°C CO2 incubator, 20 uL of a test compound or control compound (Deucravacitinib) diluted in the test medium was added, and then incubated at 37°C for 1 hour and 30 minutes. Next, 20 uL of human IFNα2B recombinant protein (PBL assay science) prepared with the test medium was added to each well (final concentration 1 U/mL) and then incubated at 37°C for 24 hours. 20 uL and 180 uL of cell supernatant were mixed with a QUANTI-blue reagent (InvivoGen) and then reacted at 37°C for 20-30 minutes. An absorbance at 630 nm was measured using Synergy neo (BioTek Instruments, Inc.). […] [Table 3] Result of TYK2/JAK1 cell activity by IFNα2B stimulation test
Take `CC(=O)Nc1cc2c(-c3cc(OCC(F)F)c(=O)n([C@@H](C)C(F)(F)F)n3)cn(C3CC3)c2cn1`: the pIC50 is above 7.30.
In the case of `CCn1cc(-c2cc(N3CC(OC)C3)c(=O)n([C@@H](C)C(F)(F)F)n2)c2cc(NC(C)=O)ncc21`, the pIC50 is above 7.30.
`COC1CN(c2cc(-c3cn(CC4CC4)c4cnc(NC(C)=O)cc34)nn([C@@H](C)C(F)(F)F)c2=O)C1`: the pIC50 was above 7.30.
Same read-out and setting: for `CC(=O)Nc1cc2c(-c3cc(OCC(C)(F)F)c(=O)n([C@@H](C)C(F)(F)F)n3)cn([C@H]3C[C@@H](C#N)C3)c2cn1` the value was above 7.30.
Same read-out and setting: for `CC(=O)Nc1cc2c(-c3cc(N4CCC(F)(F)C4)c(=O)n([C@@H](C)C(F)(F)F)n3)cn(C)c2cn1` the value was above 7.30.

A further test has as its target JAK1 JH1 (Homo sapiens, UniProt P23458). Nature of the test: JAK kinase domain activity, ADP-Glo kinase assay, JAK1. To be noted: read-out: JAK1 JH1 IC50, substrate IRS1 (Y608) peptide, top concentration 10000 nM. The protocol:
(§1) Experimental Example 2: JAK Kinase Domain Activity Analysis
(§2) Kinase domain activity of the JAK family was analyzed using the ADP-Glo kinase assay kit (Promega). The evaluation of the compound was performed according to the manufacturer's protocol, and the method thereof is as follows:
(§3) A 10 mM test compound was diluted to 0.5 mM using DMSO in a 96-well plate, and then 5-fold serial dilutions were performed in DMSO. The diluted compound was diluted to 1/10 with 1x reaction buffer (composition) to prepare a 5x compound solution. 5 uL of the 5x compound solution was mixed with a substrate prepared in the reaction buffer (40 mM Tris, 20 mM MgCl2 and 0.1 mg/ml BSA, 0.05 mM DTT, pH 7.5), and an ATP mixture (10 uL). Next, an enzyme reaction was initiated by adding the JAK family enzyme (10 uL) prepared in the reaction buffer. A short rotation was performed to settle all the solution to the bottom of the plate. The final concentrations of the test compounds in the reaction mixture were 10000, 2000, 400, 80, 16, and 3.2 nM. The concentrations of the control compounds (Brepocitinib or Tofacitinib) were 10 times lower. The enzyme reaction was performed at 25°C for 1 hour. 25 uL of ADP-Glo reagent was added and the reaction was performed at 25 °C for 1 hour. The reaction mixed 50 uL of kinase detection reagent and was stopped, and a luminescence signal was measured using Synergy neo (BioTek Instruments, Inc.). […]
Background: ADP-Glo turns the ADP formed in a reaction into a luminescent signal.
For the molecule `CC(=O)Nc1cc2c(-c3cc(OCC(F)F)c(=O)n([C@@H](C)C(F)(F)F)n3)cn(C3CC3)c2cn1`, the pIC50 is 5.04.
Same read-out and setting: for `CCn1cc(-c2cc(N3CC(OC)C3)c(=O)n([C@@H](C)C(F)(F)F)n2)c2cc(NC(C)=O)ncc21` the value was below 5.00; for `COC1CN(c2cc(-c3cn(CC4CC4)c4cnc(NC(C)=O)cc34)nn([C@@H](C)C(F)(F)F)c2=O)C1`, below 5.00; for `CC(=O)Nc1cc2c(-c3cc(OCC(C)(F)F)c(=O)n([C@@H](C)C(F)(F)F)n3)cn([C@H]3C[C@@H](C#N)C3)c2cn1`, below 5.00.
As for `CC(=O)Nc1cc2c(-c3cc(N4CCC(F)(F)C4)c(=O)n([C@@H](C)C(F)(F)F)n3)cn(C)c2cn1`, the pIC50 is 5.81.

Another test addresses JAK2 JH1 (Homo sapiens, UniProt O60674). The test is described as follows: JAK kinase domain activity, ADP-Glo kinase assay, JAK2. The conditions noted are these: read-out: JAK2 JH1 IC50, substrate IGF1R peptide, top concentration 10000 nM. The protocol:
as §1, §2, §3
For the molecule `CC(=O)Nc1cc2c(-c3cc(OCC(F)F)c(=O)n([C@@H](C)C(F)(F)F)n3)cn(C3CC3)c2cn1`, the pIC50 is below 5.00.
Same read-out and setting: for `CCn1cc(-c2cc(N3CC(OC)C3)c(=O)n([C@@H](C)C(F)(F)F)n2)c2cc(NC(C)=O)ncc21` the value was below 5.00.
On to `COC1CN(c2cc(-c3cn(CC4CC4)c4cnc(NC(C)=O)cc34)nn([C@@H](C)C(F)(F)F)c2=O)C1`, for which the pIC50 was below 5.00.
As to `CC(=O)Nc1cc2c(-c3cc(OCC(C)(F)F)c(=O)n([C@@H](C)C(F)(F)F)n3)cn([C@H]3C[C@@H](C#N)C3)c2cn1`, the pIC50 is below 5.00.
For the molecule `CC(=O)Nc1cc2c(-c3cc(N4CCC(F)(F)C4)c(=O)n([C@@H](C)C(F)(F)F)n3)cn(C)c2cn1`, the pIC50 was 6.42.

A further test concerns the target JAK3 JH1 (Homo sapiens, UniProt P52333). Nature of the test: JAK kinase domain activity, ADP-Glo kinase assay, JAK3. The conditions noted are these: read-out: JAK3 JH1 IC50, substrate Poly (4:1 Glu-Tyr) peptide, top concentration 10000 nM. The protocol: as §1, §2, §3
Consider `CC(=O)Nc1cc2c(-c3cc(OCC(F)F)c(=O)n([C@@H](C)C(F)(F)F)n3)cn(C3CC3)c2cn1`, for which the pIC50 is below 5.00.
`CCn1cc(-c2cc(N3CC(OC)C3)c(=O)n([C@@H](C)C(F)(F)F)n2)c2cc(NC(C)=O)ncc21`: the pIC50 was below 5.00.
Take `COC1CN(c2cc(-c3cn(CC4CC4)c4cnc(NC(C)=O)cc34)nn([C@@H](C)C(F)(F)F)c2=O)C1`: the pIC50 was below 5.00.
The same measure, in the same setting: the same measure for `CC(=O)Nc1cc2c(-c3cc(OCC(C)(F)F)c(=O)n([C@@H](C)C(F)(F)F)n3)cn([C@H]3C[C@@H](C#N)C3)c2cn1`: below 5.00; for `CC(=O)Nc1cc2c(-c3cc(N4CCC(F)(F)C4)c(=O)n([C@@H](C)C(F)(F)F)n3)cn(C)c2cn1`: 5.11.

The target in another test is TYK2 pseudokinase domain (Homo sapiens, UniProt P29597). Nature of the test: TYK2 JH2 pseudokinase domain binding affinity, fluorescence polarization (BPS Bioscience inhibitor screening kit). The conditions noted are these: read-out: TYK2 JH2 IC50; polarized fluorescence, 25°C, 1 hour. The protocol: Experimental Example 1: Analysis of domain binding affinity to TYK2 pseudokinase
In order analyze the binding affinity of a test compound to the TYK2 pseudokinase domain, a polarized fluorescence-based TYK2 JH2 Pseudokinase Domain Inhibitor Screening Assay Kit (BPS bioscience) was used. The evaluation of the compound was performed according to the manufacturer's protocol, and the method thereof is as follows:
The test compound or control compound (Deucravacitnib) was serially diluted in DMSO, and then diluted 1/10 with distilled water to prepare 10x compound solution. After mixing the compound solution with Probe 1 prepared with a binding reaction buffer (JH2 binding buffer), a reaction was performed at 25°C for 10 minutes. Next, the reaction was initiated by adding a TYK2 pseudokinase domain enzyme prepared with the binding reaction buffer. The reaction was performed in a black 384-well plate at 25 °C for 1 hour. Polarized fluorescence was measured using Synergy neo (BioTek Instruments, Inc.).
Background: Polarisation of emitted light reports the rotation of a fluorescent probe.
For `CC(=O)Nc1cc2c(-c3cc(OCC(F)F)c(=O)n([C@@H](C)C(F)(F)F)n3)cn(C3CC3)c2cn1`, the pIC50 is 7.85.
In the case of `CCn1cc(-c2cc(N3CC(OC)C3)c(=O)n([C@@H](C)C(F)(F)F)n2)c2cc(NC(C)=O)ncc21`, the pIC50 was 7.10.
`COC1CN(c2cc(-c3cn(CC4CC4)c4cnc(NC(C)=O)cc34)nn([C@@H](C)C(F)(F)F)c2=O)C1`: the pIC50 is 7.17.
Regarding `CC(=O)Nc1cc2c(-c3cc(OCC(C)(F)F)c(=O)n([C@@H](C)C(F)(F)F)n3)cn([C@H]3C[C@@H](C#N)C3)c2cn1`, the pIC50 was 7.60.
Regarding `CC(=O)Nc1cc2c(-c3cc(N4CCC(F)(F)C4)c(=O)n([C@@H](C)C(F)(F)F)n3)cn(C)c2cn1`, the pIC50 was 7.48.

In another test the target is TYK2 JH1 (Homo sapiens, UniProt P29597). Nature of the test: JAK kinase domain activity, ADP-Glo kinase assay, TYK2. To be noted: read-out: TYK2 JH1 IC50, substrate IRS1 (Y608) peptide, top concentration 10000 nM. The protocol: as §1, §2, §3
Take `CC(=O)Nc1cc2c(-c3cc(OCC(F)F)c(=O)n([C@@H](C)C(F)(F)F)n3)cn(C3CC3)c2cn1`: the pIC50 is below 5.00.
As for `CCn1cc(-c2cc(N3CC(OC)C3)c(=O)n([C@@H](C)C(F)(F)F)n2)c2cc(NC(C)=O)ncc21`, the pIC50 is below 5.00.
For `COC1CN(c2cc(-c3cn(CC4CC4)c4cnc(NC(C)=O)cc34)nn([C@@H](C)C(F)(F)F)c2=O)C1`, the pIC50 was below 5.00.
The same measure, in the same setting: the same measure for `CC(=O)Nc1cc2c(-c3cc(OCC(C)(F)F)c(=O)n([C@@H](C)C(F)(F)F)n3)cn([C@H]3C[C@@H](C#N)C3)c2cn1`: below 5.00.
Regarding `CC(=O)Nc1cc2c(-c3cc(N4CCC(F)(F)C4)c(=O)n([C@@H](C)C(F)(F)F)n3)cn(C)c2cn1`, the pIC50 is 5.80.
